Test results taken from patent US8877802B2 (priority 2005, dated 2014).

Columns and labels:
[1] = test system: DA-depleted DAT-KO (DDD) mice; details: high doses, catalepsy, grasping and akinesia tests
[2] = test system: DA-depleted DAT-KO (DDD) mice; test: Locomotor activity (forward locomotion, distance traveled) in DDD mice; details: NE- and 5-HT-related drugs, data not shown

| Molecule | manifestations of akinesia and rigidity [1] | effect in tests of forward locomotion or akinesia and rigidity [2] |
| --- | --- | --- |
| CCNC(C)Cc1ccc2c(c1)OCO2.Cl (stereo not drawn) | effective in reducing manifestations of akinesia and rigidity |  |
| (6)-6-hydroxy-3,4-methylenedioxyamphetamine HCl | effective in reducing manifestations of akinesia and rigidity |  |
| b-ethyltryptamine |  | none were effective |
